Measured values reported in patent US10159656B2, “Methods for use of epinephrine fine particles for treatment of conditions responsive to epinephrine” (NOVA SOUTHEASTERN UNIVERSITY, priority 2013, dated 2018).

Conditions: after processing, one cycle at 30,000 Psi

SMILES: CNC[C@H](O)c1ccc(O)c(O)c1.O=C(O)C(O)C(O)C(=O)O [EpiBit After Processing, epinephrine bitartrate microcrystals]
- Pdi (polydispersity index): 0.165
